Test results: ChEMBL document CHEMBL3826971 (Bioorg Med Chem Lett, 2016)

Sequences of proteins named here, by UniProt entry; tags and fusion partners are left off. A change or cut given only in a name is not applied to a line headed by its entry.
UniProt P06276, whole entry, looked up: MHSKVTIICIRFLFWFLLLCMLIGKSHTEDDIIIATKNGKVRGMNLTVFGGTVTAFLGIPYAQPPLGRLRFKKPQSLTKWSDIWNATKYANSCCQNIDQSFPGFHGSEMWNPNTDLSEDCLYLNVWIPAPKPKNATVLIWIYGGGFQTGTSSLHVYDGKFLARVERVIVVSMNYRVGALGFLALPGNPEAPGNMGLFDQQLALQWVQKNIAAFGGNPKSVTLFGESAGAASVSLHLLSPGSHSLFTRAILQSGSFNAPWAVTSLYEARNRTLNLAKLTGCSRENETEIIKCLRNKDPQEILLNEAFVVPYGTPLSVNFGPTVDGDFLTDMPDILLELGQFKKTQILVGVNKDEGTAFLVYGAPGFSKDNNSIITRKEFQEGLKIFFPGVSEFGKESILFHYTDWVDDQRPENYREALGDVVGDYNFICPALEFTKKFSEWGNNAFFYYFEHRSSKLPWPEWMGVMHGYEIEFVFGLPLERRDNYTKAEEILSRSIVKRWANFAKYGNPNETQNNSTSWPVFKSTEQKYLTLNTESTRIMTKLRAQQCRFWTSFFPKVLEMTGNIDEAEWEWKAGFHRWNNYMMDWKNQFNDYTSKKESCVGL
UniProt P22303: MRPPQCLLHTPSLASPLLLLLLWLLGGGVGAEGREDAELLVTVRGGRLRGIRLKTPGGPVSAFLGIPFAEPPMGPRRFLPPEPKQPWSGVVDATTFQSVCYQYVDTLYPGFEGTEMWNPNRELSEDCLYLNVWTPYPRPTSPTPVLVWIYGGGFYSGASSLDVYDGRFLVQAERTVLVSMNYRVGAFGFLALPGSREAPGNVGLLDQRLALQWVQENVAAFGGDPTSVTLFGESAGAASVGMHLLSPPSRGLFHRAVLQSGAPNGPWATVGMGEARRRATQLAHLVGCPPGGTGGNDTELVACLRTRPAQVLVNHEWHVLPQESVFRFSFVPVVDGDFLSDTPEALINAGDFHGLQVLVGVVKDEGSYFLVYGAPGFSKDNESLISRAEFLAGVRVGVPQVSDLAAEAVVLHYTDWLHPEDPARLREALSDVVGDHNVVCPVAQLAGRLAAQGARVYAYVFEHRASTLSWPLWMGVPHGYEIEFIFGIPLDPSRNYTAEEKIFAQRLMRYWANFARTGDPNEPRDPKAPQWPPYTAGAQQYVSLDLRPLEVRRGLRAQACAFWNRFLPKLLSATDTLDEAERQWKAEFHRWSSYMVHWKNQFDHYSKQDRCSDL

Assays:
[1] = molecular target: Cholinesterases; ACHE & BCHE (Homo sapiens) (UniProt P06276+P22303); test: Selectivity ratio, ratio of IC50 for human plasma BChE to IC50 for human AChE
[2] = Selectivity ratio, ratio of Ki for horse serum BChE to Ki for fetal bovine serum AChE

For `CN(C)C(=O)Oc1ccc[n+](C)c1.[Br-]` [PYRIDOSTIGMINE BROMIDE], the Ratio IC50 [1] was 2.9 and the Ratio Ki [2] was 6.
